Values quoted from earlier work in patent publication US8999940B2, “Analogues of glucose-dependent insulinotropic polypeptide (GIP) modified at N-terminal” (Ipsen Pharma S.A.S., priority 2008, dated 2015).

Conditions: unmodified GIP; Said and Mutt, 1970; cited from earlier work

In the case of “Glucose-dependent insulinotropic polypeptide [GIP]”, the in vivo half-life is listed as “about 2 minutes”.
